The subject of one data set is BV2 cells. As to the kind of experiment: Nitric oxide (NO) production in LPS-exposed BV2 cells (DAF). The following applies: LPS 24 h. As for the experimental part: FIG. 1. Compound 1 reduces the inflammatory response against LPS in vitro. (A) Nitric oxide (NO) production in BV2 cells detected by DAF 24 h after LPS exposure and normalized by cell viability measured by MTT (n=9). (B) qRT-PCR of TNFα (n=9) in BV2 cells after 24 h LPS exposure. Sulforaphane (Sfn) was used as a positive control.
Nitric oxide (NO) detection in the mouse microglial cell line BV2 was evaluated by using the fluorescent probe 4-amino-5-methylamino-2′,7′-difluorofluorescein diacetate (DAF) with excitation and emission wavelengths of 495 nm of 515 nm, respectively according to the manufacturer's instructions. Fluorescence results were divided by cell viability (measured as MTT reduction) and normalized to basal condition. Results were normalized respect to basal condition.

Data set [1] deals with cytokines, chemokines in mouse brain. Nature of the data set: LPS in vivo model: multiplex assay of cytokines and chemokines in mouse brain. The following applies: 20 mg·kg^−1 i.p. As for the experimental part: FIG. 2. Compound 1 decreases the inflammatory process 4 and 24 hours after LPS administration in vivo. Compound 1 (20 mg·kg^−1) daily was injected i.p. four days before the i.p. LPS (0.5 mg·kg^−1) administration.
FIG. 3. Compound 1 ameliorates the resolution of the inflammatory process triggered by LPS. Multiplex assay of cytokines 4 h (A) and 24 h (B) after the proinflammatory stimuli (n=5).
The LPS in vivo model was induced, sickness behaviour evaluated (locomotion test and novel object recognition test) and cytokines measured by qPCR as described by [Fernindez-Mendivil, Cristina et al. “Protective role of microglial HO-1 blockade in aging: Implication of iron metabolism.” Redox biology vol. 38 (2021): 101789. doi:10.1016/j.redox.2020.101789]. The panel of mouse cytokines, chemokines, and growth factors were measured by Luminex xMAP technology for multiplexed quantification at Evetechnologies (https://www.evetechnologies.com/)
Example 2.3.1. Treatment with Compound 1 reduces LPS-induced cytokine expression and release in mouse brain. Mice were treated i.p. with a daily dose of 20 mg·kg^−1 of Compound 1 for 4 consecutive days. On the last day, LPS (0.5 mg·kg^−1) was injected i.p. one h after the compound. Thereafter, behavioural, and biochemical outcomes were analysed at different time points.

The subject of data set [2] is aged mice with hTauP301L tauopathy. As to the kind of experiment: hTauP301L FTD model, aged mice: T-maze. The following applies: 35 days. As for the experimental part:
FIG. 10. Compound 1 reduces hyperphosphorylated tau species and improves cognitive behaviour in aged (16-18 months old) mice with hTauP301L tauopathy after days oral administration (50 mg/kg/day). (A). Representative images of hyperphosphorylated tau intensity measured by AT8 and AT180 antibodies in three different regions of the hippocampus (GD, CA3 and CA1) (n=12). (B) Quantification AT8 intensity, normalized to CA3 intensity of Sham animals. (C) Quantification of AT180 intensity, normalized to CA3 intensity of Sham animals. (D) Experimental protocol of T-maze alternation test and (E) Object Location test (OLT). (F) Average of the percentage of success in seven independent attempts (n=6).
In vivo hTau301L model was induced by stereotaxic injection of AAV-hTauP301L (AAV-hTau) particles as described in [Luengo, Enrique et al. “Implication of type 4 NADPH oxidase (NOX4) in tauopathy.” Redox biology vol. 49 (2022): 102210. doi:10.1016/j.redox.2021.102210]. Control animals were injected with AAV-GFP. […]
Example 2.6. […] 35 Days of treatment with a single oral dose of Compound 1 at 50 mg/kg reduced hyperphosphorylated tau levels induced by hTauP301L, measured by AT8 and AT180 antibodies in DG, CA3 and CA1 regions of the hippocampus (FIG. 10A-C). […]

A short description of data set [3]: Blood-brain distribution, intravenous and oral administration. The conditions noted are these: for AUClast / Cmax / Tmax: brain, male C57BL/6 mice. How it is done:
Example 3.5. Blood-brain distribution studies by intravenous and oral administration. Following a single intravenous at 20 mg/kg and oral at 50 mg/kg dose administration of Compound 1 in male C57BL/6 mice, the brain concentrations were quantifiable up to 4 h (SAI Life Sciences Ltd).

For orientation: Cmax means the peak of the concentration-time curve. The Tmax is the time at which the peak concentration occurs. For the compound `COc1ccc2c(c1)CC(c1c[nH]c3ccc(OC)cc13)N2` (stereo not shown), in the data set on BV2 cells (10 μM), the “nitric oxide (NO) production at 10 μM” value is “reduced to basal levels”. Moreover, in the data set with BV2 cells (concentration series), the “nitric oxide (NO) production, reduction” value is “concentration-dependent reduction of nitric oxide (NO)”. In data set [1] (4 h and 24 h after LPS, most of them), the “Additional cytokines (FIG. 3)” value is “decreased with compound treatment”. For the same compound, in data set [1] (brain, 4 and 24 h after LPS), the IP10 result is listed as “decreased significantly”, the KC entry was “decreased significantly”, the MIP2 entry is on record as “decreased significantly” and the RANTES result is listed as “decreased significantly”. Further, the MCP-1 result in data set [1] (brain, 4 h after LPS) was “decreased significantly”. In data set [1] (brain, 4 h post LPS), the IL-6 result is on record as “marked reduction” and the IL-7 result is “marked reduction”. Also, in data set [1] (brain, 24 h post LPS), the IL-6 entry is “restored to basal conditions” and the IL-7 entry is on record as “restored to basal conditions”. Further, the “granulocyte-colony stimulating factor (G-CSF)” value in data set [1] (brain, LPS) is reported as “significantly reduced”. Further, in data set [2] (aged (16-18 months) mice, oral 50 mg/kg), the “spatial memory loss, T-maze” value was “prevented”. Moreover, in data set [2] (young and aged subjects, 50 mg/kg oral once a day, T-maze and OLT), the “cognitive decline (summary)” value was “prevented cognitive decline”. For the same compound, the “brain concentrations quantifiable up to” value in data set [3] (IV 20 mg/kg and oral 50 mg/kg) is “up to 4 h”. Moreover, in data set [3] (IV 20 mg/kg), the AUClast was determined as 3750.37 ng·h/g, the Cmax stood at 9332.44 ng/g and the Tmax amounted to 4.98 min. Also, in data set [3] (PO 50 mg/kg), the AUClast amounted to 2010.59 ng·h/g, the maximum concentration (Cmax) is 2211.96 ng/g and the Tmax worked out at 60 min.

(Values after patent US20260382572A1, “TREATMENT OF FRONTOTEMPORAL DEMENTIA OR FRONTOTEMPORAL LOBAR DEMENTIA” (published 2026).)
